Results on 1 molecule are retold here after patent US20150247179A1 (Les Laboratoires Servier, priority 2013, published 2015).

The data set deals with CYP1A2. How it is done:
Each active ingredient was incubated at 0.1 μM at 37° C. […] The reaction is initiated by addition of NADPH 1 mM. The incubation is monitored in kinetic form. At the incubation timepoints of 7 min, 17 min, 30 min and then 60 min, an incubation aliquot (100 μL) is sampled and the enzymatic reaction is stopped by adding to that aliquot a to volume of solvent (100 μL of methanol) which is placed in ice for 10 minutes.
At each incubation timepoint, the active ingredient is quantified by high-performance liquid chromatography (HPLC) coupled with mass spectrometry (MS).

Structures are written as SMILES.

On to `CN[C@H]1CC[C@@H](c2ccc(Cl)c(Cl)c2)c2ccccc21` [sertraline], for which the “inhibition of intrinsic clearance = % involvement of CYP1A2 in the oxidative metabolism (kit of isolated microsomes)” value is listed as “No significant inhibition”.
